For the assay, the system named is hot plate latency in catheterized rats. As to the kind of experiment: Rat hot plate antinociception assay. The assay is classed as in vivo, Sprague–Dawley rats. The following applies: 0.1 mg/kg (i.v.) naltrexone after cumulative doses.

The structures appear in SMILES notation. “Also recorded” adds a separate entry of the source.

For `CN1CC[C@]23c4c5ccc(O)c4O[C@H]2[C@@H](O)C=C[C@H]3[C@H]1C5` [morphine, reference compound], the “Reversal of antinociception by naltrexone” value was “fully reversed; also recorded: antagonized by naltrexone”.

The record behind these values is article PMC8693998 (Journal of natural products, 2021).
